pIC50: −log10 of the molar value.
How the values were obtained:
[1] = molecular target: T1, Tyrosine-protein kinase BTK (Homo sapiens, UniProt Q06187); experiment: Inhibition of BTK in human whole blood assessed as reduction in cell surface CD69 expression preincubated for 1 hr followed by stimulation with anti-CD79b for 3 hrs by immunostaining analysis; format: tissue-based
[2] = molecular target: T1, Tyrosine-protein kinase BTK; experiment: Inhibition of BTK in human PBMC assessed as reduction in cell surface CD69 expression preincubated for 1 hr followed by stimulation with goat anti-human IgM F(ab')2 for 18 hrs by immunostaining analysis; format: tissue-based
[3] = molecular target: T1, Tyrosine-protein kinase BTK; experiment: Inhibition of recombinant full length BTK (unknown origin) expressed in baculovirus infected Sf9 cells using Biotin-EQEDEPEGDYFEWLE-NH2 peptide as substrate incubated for 60 mins followed by further incubation with substrate and ATP for 120 mins by TR-FRET assay

Amino acid sequences for entries named in this document (tags omitted). A change or cut given only in a name is not applied to a line headed by its entry.
UniProt Q06187: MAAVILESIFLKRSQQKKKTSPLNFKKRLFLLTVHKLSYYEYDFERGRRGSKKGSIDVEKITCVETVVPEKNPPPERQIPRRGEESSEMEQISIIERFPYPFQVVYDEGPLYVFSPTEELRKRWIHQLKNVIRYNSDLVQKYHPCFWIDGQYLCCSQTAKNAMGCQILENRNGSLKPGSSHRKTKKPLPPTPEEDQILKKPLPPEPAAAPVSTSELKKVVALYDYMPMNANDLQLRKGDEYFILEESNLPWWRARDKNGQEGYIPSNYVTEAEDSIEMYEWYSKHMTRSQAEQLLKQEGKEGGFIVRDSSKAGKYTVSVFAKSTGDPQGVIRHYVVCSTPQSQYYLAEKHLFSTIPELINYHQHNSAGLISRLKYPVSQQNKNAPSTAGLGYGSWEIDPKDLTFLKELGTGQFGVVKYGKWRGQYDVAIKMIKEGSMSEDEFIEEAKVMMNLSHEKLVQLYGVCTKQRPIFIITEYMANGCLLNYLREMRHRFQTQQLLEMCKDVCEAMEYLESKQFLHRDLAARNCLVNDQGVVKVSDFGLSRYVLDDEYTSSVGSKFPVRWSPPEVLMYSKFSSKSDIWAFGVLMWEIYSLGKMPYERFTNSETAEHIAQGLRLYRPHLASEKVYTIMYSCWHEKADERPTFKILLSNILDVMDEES

pIC50 [1]: 7.52
pIC50 [2]: 7.77
pIC50 [3]: 9.68
Compound: COc1cc(C(=O)Nc2cc(C(F)(F)F)ccn2)ccc1-c1nc([C@@H]2CC[C@H]3CCC(=O)N3C2)n2ccnc(N)c12
